Consider 1 substance from US9402842B2, “Synthesis and use of dual tyrosyl-DNA phosphodiesterase I (Tdp1)—topoisomerase I (Top1) inhibitors” (Purdue Research Foundation, priority 2012, dated 2016).

One series concerns HCT-116. In words: NCI screen cytotoxicity, colon HCT-116. Particulars: read-out: Cytotoxicity (GI50 in μM) colon HCT-116; 50% growth inhibition.
In the next series the test system is SF-539. In words: NCI screen cytotoxicity, CNS SF-539. As to conditions: read-out: Cytotoxicity (GI50 in μM) CNS SF-539; 50% growth inhibition.
The next series deals with HOP-62. Put plainly: NCI screen cytotoxicity, lung HOP-62. Particulars: read-out: Cytotoxicity (GI50 in μM) lung HOP-62; 50% growth inhibition.
In the next series the target is Tdp1 (Homo sapiens (Human), UniProt Q9NUW8). Put plainly: Gel-based assay measuring the inhibition of recombinant Tdp1. Format: biochemical.
For another series, the system named is MDA-MB-435. Put plainly: NCI screen cytotoxicity, breast MDA-MB-435. Particulars: read-out: Cytotoxicity (GI50 in μM) breast MDA-MB-435; 50% growth inhibition.
Another series has as its system UACC-62. In words: NCI screen cytotoxicity, melanoma UACC-62. Particulars: read-out: Cytotoxicity (GI50 in μM) melanoma UACC-62; 50% growth inhibition.
The next series deals with DU-145. Put plainly: NCI screen cytotoxicity, prostate DU-145. Particulars: read-out: Cytotoxicity (GI50 in μM) prostate DU-145; 50% growth inhibition.
A further series relates to SN12C. Put plainly: NCI screen cytotoxicity, renal SN12C. Particulars: read-out: Cytotoxicity (GI50 in μM) renal SN12C; 50% growth inhibition.

Like-named read-outs stand apart in the source and are kept apart here.

One may read the GI50 as the concentration that inhibits growth by half. One may read the IC50 as the point on the concentration scale where inhibition reaches its midpoint. “N-(6-(5,11-Dioxo-5H-indeno[1,2-c]isoquinolin-6(11H)hexyl)-methanesulfonamide [Compound 84]”: the GI50 was found to be 0.07 µM in the series on HCT-116; 0.39 µM in the series with SF-539; 0.14 µM in the series with HOP-62; 0.96 µM in the series on MDA-MB-435; 0.14 µM in the series on UACC-62; 0.05 µM in the series with DU-145. In addition, the concentration for 50% growth inhibition (GI50) in the series on SN12C is 0.05 µM. Besides, the half-maximal inhibitory concentration (IC50) at Tdp1 (read-out: Tdp1 (semiquantitative IC50 scale)) was 1 to 12 µM; on Tdp1 (read-out: Tdp1 (μM), IC50 values of Tdp1 active compounds) it was 5.2 ± 0.1 µM; on Tdp1 (read-out: Tdp1 IC50) it was 5.2 ± 0.1 µM.
